Tested on: CTLL-2
Test: CTLL-2 proliferation
Format: cell-based, mouse

## Native IL-2: native IL-2 (wild-type IL-2; Thermo #PHC0021) [reference compound]
Table 3
  EC50 CTLL-2 proliferation: 0.846 ng/mL
Table 13 (Example 11)
  EC50 CTLL-2 proliferation: 0.4558 ng/mL

— patent US12521437B2 (Synthorx, Inc., priority 2019, dated 2026)
